The values that follow are results of earlier work, collected in patent US7964349B2, “Method to determine responsiveness of cancer to epidermal growth factor receptor targeting treatments” (The General Hospital Corporation, priority 2004, dated 2011).

In the series the test system is non-small cell lung cancer (NSCLC). The conditions noted are these: published literature; cited from earlier work.

As for `COc1cc2ncnc(Nc3ccc(F)c(Cl)c3)c2cc1OCCCN1CCOCC1` [Gefitinib], the “individuals with a somatic EGFR mutation responsive to gefitinib” value is 11/11.
